Screens (PubChem)
The list is not random: actives were taken first. Their share in the collection is about 16%.
miR-21 reporter = raises the signal of a miR-21 reporter | HeLa miR-21 FLuc reporter, luciferase, 48 h | Potency, µM (highest dose often 38.3 µM), for inactives: at the highest dose reporter change, positive = more light | 340,000 tested, under 10 active | AID 2288; active = well fitted rising curve with a large enough effect; inconclusive = small, poorly fitted or top-dose-only effect; inactive = no such curve, though single readings can be large or run the other way;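 also: % of control where 0% means no effect; miR-21 action dims this reporter so a rising signal means less miR-21 action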
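Luminescence from a firefly luciferase reporter carrying a miR-21 binding site downstream, stably expressed under a CMV promoter in HeLa cells that make miR-21 endogenously, reports miRNA modulation after 48 h compound exposure up to approximately 40uM final.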
TDP1 cell CPT = growth inhibition of DT40 Tdp1-/-;hTDP1 cells with camptothecin (screen for TDP1 inhibitors). chicken DT40 Tdp1-/-;hTDP1 cells + 20 nM CPT, ATP luminescence, 48 h. Potency, µM (highest dose often 46.2 µM), for the others: at the top dose activity change, negative = growth inhibition, most hits filed as inhibitors. 420,000 compounds, 12% hits. AID 686979; also: potency is read from the fitted curve at half-maximal effect; % is scaled to controls: 0 for no effect and ±100 for the full control effect; nearly all actives have a fitted effect of over 55% in size
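Cell growth measured by CellTiter-Glo luminescence after a minimum 48 h, 37 C compound exposure with 20 nM CPT in Tdp1-knockout DT40 cells stably expressing hTDP1, seeded 400/well; qHTS titration format.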
DT40 TDP1 no CPT = qHTS for Inhibitors of human tyrosyl-DNA phosphodiesterase 1 (TDP1): qHTS in cells in absence of CPT; 420,000 compounds, 15% hits; DT40 Tdp1-/- hTDP1 cells, no CPT, ATP luminescence, 48 h; Potency, µM (doses to about 46.2 µM), for the others: at the top dose activity change, negative = growth inhibition, most hits filed as inhibitors; also: potency is read from the fitted curve at half-maximal effect; % is scaled to controls: 0 for no effect and ±100 for the full control effect; nearly all actives have a fitted effect of over 55% in size
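Readout: luminescence from CellTiter-Glo after 30 min in the dark at RT. Cells: DT40 Tdp1-/- with stable hTDP1, 400/well. Exposure: compounds alone, ≥48 hr, 37 °C.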
uPA generation = blocks generation of uPA at the cell surface; cell surface uPA generation assay, qHTS; Potency, µM (titrated, usually from 38.3 µM), for inactives: at the top dose activity change, negative = inhibition, most hits filed as inhibitors; 330,000 compounds, 0.31% hits; active = well fitted inhibition curve with a large enough effect; inconclusive = small, poorly fitted or top-dose-only effect; inactive = no such curve, though single readings can be large or run the other way; tested in mouse RAW 264.7 cells; also: potency is read from the fitted curve at half-maximal effect; % is scaled to controls: 0 for no effect and ±100 for the full control effect; nearly all actives have a fitted effect of over 55% in size
TDP1 inh = TDP1 (human) enzyme inhibition; Q9NUW8; recombinant TDP1, AlphaScreen DNA substrate cleavage; Potency, µM (series often up to 130 µM), inactives show top-dose activity change, negative = inhibition, actives largely listed as inhibitors; 350,000 compounds, 0.28% hits; AID 485290; also: potency is read from the fitted curve at half-maximal effect; % is scaled to controls: 0 for no effect and ±100 for the full control effect; nearly all actives have a fitted effect of over 40% in size
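Recombinant human Tdp1 (E. coli-expressed, 1 nM final) preincubated with compounds 15 min at room temperature, then 5'-biotin/3'-phosphotyrosine-FITC DNA substrate (15 nM final) added for 5 min. AlphaScreen beads (10 ug/ml final) added 10 min; cleavage lowers signal.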
Starred values were filed as active, the others as inactive; ? = inconclusive; / = no result; [ ] = dose if it differs, or a comment. Unless noted, calls follow the shape of the dose curve; as a rule, active = well fitted curve in the direction sought with a large enough effect; inconclusive = small, poorly fitted or top-dose-only effect, or another doubt; inactive = no such curve, though single readings can be large; an effect the other way counts as inactive or inconclusive.

Structure	uPA generation	miR-21 reporter	DT40 TDP1 no CPT	TDP1 inh	TDP1 cell CPT
CCc1nc(SCC(=O)c2ccccc2)c2ccccc2n1	-7%	8%	13µM*	8%	?
CCc1nc(SCC(=O)N2c3ccccc3Sc3ccccc32)c2ccccc2n1	-2%	1%	15µM*	5%	?
Cn1nnnc1SCC(=O)N1c2ccccc2Sc2ccccc21	-1%	-4%	15µM*	1%	10µM*
Cc1cc(C(=O)CSc2nc(N)cc(N)n2)c(C)n1C1CC1	4%	-16%	0%	-8%	6%
Cc1nc(SCC(=O)c2cc(C)n(C3CC3)c2C)c2ccccc2n1	/	/	7.3µM*	/	8.2µM*
CSc1nc2ccccc2c(=O)n1C1CCOC(C)(C)C1 (stereo not drawn)	4%	-14%	-15%	6%	-15%
O=C(CSc1ccccc1)N1CCC(N2CCC(C(=O)N3CCCC3)CC2)CC1	-4%	1%	8%	-3%	1%
O=[n+]1cc(-c2ccccc2)n([O-])c2c1CCCCC2	-1%	-15%	-6%	3%	-5%
CC(=O)c1cc(F)c(N2CCN(C(=O)C(C)(C)C)CC2)cc1C	3%	5%	21µM*	7%	21µM*
CC(=O)c1cc(F)c(N2CCCC2)cc1C	-3%	-8%	21µM*	6%	21µM*

Pulled one by one from the entries so far:
Structure	uPA generation	miR-21 reporter	DT40 TDP1 no CPT	TDP1 inh	TDP1 cell CPT
Cn1nnnc1SCC(=O)N1c2ccccc2Sc2ccccc21	-1%	-4%	15µM*	1%	10µM*
O=[n+]1cc(-c2ccccc2)n([O-])c2c1CCCCC2	-1%	-15%	-6%	3%	-5%

Later entries:
Structure	uPA generation	miR-21 reporter	DT40 TDP1 no CPT	TDP1 inh	TDP1 cell CPT
CC(=O)c1cc(F)c(N2CCN(C(=O)COc3ccccc3F)CC2)cc1C	-7%	-5%	16µM*	-2%	21µM*
CCC(=O)c1cc(F)c(N2CCN(C(=O)Cc3ccccc3)CC2)cc1C	1%	7%	15µM*	-1%	21µM*
Cc1cc(N2CCOCC2)c(F)cc1C(=O)c1ccccc1	-2%	-3%	-18%	-2%	5%
CCOc1ccc(-n2c(C)nc3cc(C(=O)NCc4ccco4)ccc32)cc1	-3%	-12%	?	4%	?
O=C(COc1ccc(F)cc1Cl)Nc1cc(S(=O)(=O)N2CCOCC2)ccc1N1CCCCC1	4%	11%	?	4%	?
O=C(COc1ccc(Cl)cc1)Nc1cc(S(=O)(=O)N2CCCCC2)ccc1N1CCCCC1	22%	0%	10µM*	6%	2.9µM*
COc1ccccc1OCC(=O)Nc1cc(S(=O)(=O)N2CCOCC2)ccc1N1CCCCC1	-13%	/	15µM*	2%	18µM*
Cc1ccc(Cl)c(OCC(=O)Nc2cc(S(=O)(=O)N3CCOCC3)ccc2N2CCCC2)c1	-2%	1%	-61%	3%	16µM*
Cc1ccc(OCC(=O)Nc2cc(S(=O)(=O)N3CCOCC3)ccc2N2CCCC2)cc1	25%	/	?	1%	-29%
COc1cc(C(C)=O)ccc1OCC(=O)Nc1cc(S(=O)(=O)N2CCOCC2)ccc1N1CCCC1	1%	/	?	/	?
CCc1ccccc1OCC(=O)Nc1cc(S(=O)(=O)N2CCOCC2)ccc1N1CCCCC1	19%	/	7.3µM*	4%	23µM*
O=C(OCc1c(-c2ccccc2)ncc2ccccc12)N1CCOCC1	?	/	?	2%	?
COc1ccccc1CCC(=O)N1CCN(S(=O)(=O)c2cccc(F)c2)CC1	-3%	/	-10%	0%	-3%
Cc1cc(OCC(=O)Nc2cc(S(=O)(=O)N3CCOCC3)ccc2N2CCCC2)ccc1C(C)C	-4%	/	8.2µM*	-6%	12µM*
Cc1cc(OCC(=O)Nc2ccccc2N2CCCC2)ccc1C(C)C	4%	/	?	7%	?
CCOc1ccc(S(=O)(=O)N2CCOCC2)cc1NC(=O)CSCc1ccc(C)cc1	2.5µM*	/	4.6µM*	3%	5.2µM*
COc1ccccc1CCC(=O)Nc1cc(S(=O)(=O)N2CCCCC2)ccc1N1CCN(C)CC1	-6%	/	21µM*	/	?
Cc1ccc(OCCCC(=O)Nc2cc(S(=O)(=O)N3CCOCC3)ccc2N2CCOCC2)cc1	0%	/	23µM*	0%	21µM*
O=C(CCCOc1ccccc1)Nc1cc(S(=O)(=O)N2CCOCC2)ccc1N1CCOCC1	?	/	?	3%	?
CCCc1nnc(NC(=O)CCC(=O)NCc2ccc(OC)cc2)s1	1%	-1%	11%	/	11%

Quoted from the listing.
For DT40 TDP1 no CPT, `COc1ccccc1CCC(=O)Nc1cc(S(=O)(=O)N2CCCCC2)ccc1N1CCN(C)CC1` has 21µM*
For TDP1 inh, `O=C(CCCOc1ccccc1)Nc1cc(S(=O)(=O)N2CCOCC2)ccc1N1CCOCC1` has 3%
For TDP1 cell CPT, `Cc1cc(OCC(=O)Nc2cc(S(=O)(=O)N3CCOCC3)ccc2N2CCCC2)ccc1C(C)C` has 12µM*
For TDP1 cell CPT, `CCOc1ccc(S(=O)(=O)N2CCOCC2)cc1NC(=O)CSCc1ccc(C)cc1` has 5.2µM*
For TDP1 cell CPT, `COc1ccccc1CCC(=O)N1CCN(S(=O)(=O)c2cccc(F)c2)CC1` has -3%

Other compounds
Structure	uPA generation	miR-21 reporter	DT40 TDP1 no CPT	TDP1 inh	TDP1 cell CPT
CCOc1cc2nc3c4ccccc4n(C)c3nc2cc1OCC	4%	-15%	?	5%	?
CCN(CC)Cc1cc(Nc2c3ccccc3nc3c4ccccc4n(C)c23)cc(CN(CC)CC)c1O	-10%	/	5.8µM*	/	2.6µM*
CC[C@]1(O)CC2CN(CCc3c([nH]c4ccccc34)[C@@](C(=O)OC)(c3cc4c(cc3OC)N(C)[C@H]3[C@@](O)(C(=O)OC)[C@H](OC(C)=O)[C@]5(CC)C=CCN6CC[C@]43[C@@H]65)C2)C1 (stereo partly drawn)	/	/	0.14µM*	/	0.071µM*
CCC1(O)CC2CN(CCc3c([nH]c4ccccc34)[C@@](C(=O)OC)(c3cc4c(cc3OC)N(C=O)C3[C@]45CCN4CC=C[C@@](CC)([C@@H](OC(C)=O)[C@]3(O)C(=O)OC)[C@H]45)C2)C1 (stereo partly drawn)	/	/	/	12%[56.1 µM]	/
CCC1(O)CC2CN(CCc3c([nH]c4ccccc34)C(C(=O)OC)(c3cc4c(cc3OC)N(C=O)C3C(O)(C(=O)OC)C(OC(C)=O)C5(CC)C=CCN6CCC43C65)C2)C1 (stereo not drawn)	-9%	/	0.15µM*	/	0.092µM*
CC[C@]1(O)C[C@@H]2CN(CCc3c([nH]c4ccccc34)[C@](C(=O)OC)(c3cc4c(cc3OC)N(C=O)[C@H]3[C@@](O)(C(=O)OC)[C@H](C(=O)OC)[C@@]5(CC)C=CCN6CC[C@]43[C@H]65)C2)C1	/	/	0.019µM*	13%[56.1 µM]	0.027µM*
CCOC1=C2[C@H](c3cccc(Cl)c3)N(S(=O)(=O)c3ccc(C)cc3)C[C@H]2n2c(=O)n(-c3ccccc3)c(=O)n2C1	/	/	-7%	/	1%
CN1C(=O)CS(=O)c2ccc(C(=O)NC3CC3)cc21 (stereo not drawn)	-6%	-4%	7%	-4%	11%
CN(C)/C=C/C(=O)c1ccc(Br)cc1	1%	-23%	-7%	-5%	43%
CN(O)/C=C/C(=O)c1ccc(Br)cc1	-3%	1%	?	5%	16µM*
CCCn1ccc2c(OCC(=O)Nc3ccc(OC)c(OC)c3)cccc2c1=O	/	20%	7.3µM*	3%	13µM*
CCOC(=O)Nc1cccc(OCC(=O)Nc2ccc(OC)cc2OC)c1	2%	8%	9.2µM*	5%	?
COCCn1ccc2c(OCC(=O)Nc3ccccc3F)cccc2c1=O	/	-34%	?	8%	?
